## AlphaSeq binding of Ab-14 heavy chain variants to a spike HR2 peptide

Target: peptide PDVDLGDISGINAS, taken from heptad repeat 2 (HR2) of SARS-CoV-2 spike.

Parent scFv Ab-14: VH joined to VL by the linker GGGGSGGGGSGGGGS. Changes lie in the heavy chain CDRs alone.
VH: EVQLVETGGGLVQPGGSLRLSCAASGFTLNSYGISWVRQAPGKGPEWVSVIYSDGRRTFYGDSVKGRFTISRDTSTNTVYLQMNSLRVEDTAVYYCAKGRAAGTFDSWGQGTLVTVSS
VL: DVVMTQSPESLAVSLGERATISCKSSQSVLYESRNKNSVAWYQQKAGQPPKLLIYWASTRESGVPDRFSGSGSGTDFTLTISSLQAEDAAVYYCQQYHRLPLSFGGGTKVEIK

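The starting antibody came from a phage panning campaign against this peptide. The variants were designed computationally from a first round of random CDR variants and then made and measured. Their group label is 14H_En_Gen (En: ensemble of fine-tuned language models; Gen: genetic algorithm). The assay is AlphaSeq: two haploid yeast populations carry antibody and antigen on their surface. The frequency of each diploid, read from paired DNA barcodes, reflects how well the two displayed proteins bind. Scores were corrected for input abundance and mapped to Kd with protein pairs of known affinity run in the same pool. Mating was done six times.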

Each variant is given by its three heavy chain CDRs, as the data file delimits them; those of the parent are GFTLNSYGIS, VIYSDGRRTFYGDSVK, GRAAGTFDS.
The read-out is the apparent dissociation constant on a log10 scale (nM): the lower, the stronger.
An entry "nd" has no value in the source: the pair was not observed among the diploids in that replicate. This suggests poor binding but is not conclusive.
The parent sequence was in this pool as ten entries: three were never detected, three once, and four in most replicates, with averages from 0.34 to 2.37.

{"CDR-H1": "GFDLNEYGIS", "CDR-H2": "VIYADGQRTFYADSVK", "CDR-H3": "GNVAGTFDQ", "log10 Kd, replicates": "0.05 -0.28 0.00 -0.54 0.23 -0.31", "empty controls": "1/18 (3.53)"}
{"CDR-H1": "GFDLDEYGIS", "CDR-H2": "VIYADGSRTAYADSVK", "CDR-H3": "GEVAGTFDL", "log10 Kd, replicates": "1.10 0.60 -0.07 0.64 0.07 0.47", "empty controls": "0/18"}
{"CDR-H1": "GFDLNEYGIS", "CDR-H2": "VIYADGRRTAYIDSVK", "CDR-H3": "GNVAGTFDL", "log10 Kd, replicates": "-0.26 -0.13 0.07 -0.36 -0.01 -0.19", "empty controls": "1/18 (1.97)"}
{"CDR-H1": "GFDLNEYGIS", "CDR-H2": "VIYADGSRTVYADSVK", "CDR-H3": "GNVAGTFDM", "log10 Kd, replicates": "-0.71 -0.89 -0.68 -1.17 -1.05 -0.70", "empty controls": "0/18"}
{"CDR-H1": "GFDLEDYGIS", "CDR-H2": "VIYADGMRTAYADSVK", "CDR-H3": "GEVAGTFDT", "log10 Kd, replicates": "0.90 -0.33 -0.38 -0.06 -0.26 -0.29", "empty controls": "0/18"}
{"CDR-H1": "GFDLNEYGIS", "CDR-H2": "VIYADGMRTAYADSVK", "CDR-H3": "GENAGTFDI", "log10 Kd, replicates": "-0.24 -0.46 -0.13 -0.34 -0.69 -0.18", "empty controls": "0/18"}
{"CDR-H1": "GFDLNEYGIS", "CDR-H2": "VIYADGMRTAYSDSVK", "CDR-H3": "GQNAGTFDV", "log10 Kd, replicates": "-0.52 -0.48 -0.82 -0.20 -0.31 -0.75", "empty controls": "0/18"}
{"CDR-H1": "GFDLNEYGIS", "CDR-H2": "VIYADGQRTAYADSVK", "CDR-H3": "GNEAGTFDL", "log10 Kd, replicates": "0.12 nd -0.48 0.29 -0.82 -0.34", "empty controls": "0/18"}
{"CDR-H1": "GFDLDEYGIS", "CDR-H2": "VIYADGMRTAYVDSVK", "CDR-H3": "GNQAGTFDV", "log10 Kd, replicates": "0.14 -0.25 -0.57 -0.51 -0.44 -0.29", "empty controls": "0/18"}
{"CDR-H1": "GFDLEDYGIS", "CDR-H2": "VIYADGKRTAYADSVK", "CDR-H3": "GNVAGTFDT", "log10 Kd, replicates": "-0.40 -0.47 -0.20 -0.43 -0.72 -0.61", "empty controls": "0/18"}
{"CDR-H1": "GFDLNEYGIS", "CDR-H2": "VIYADGKRTAYTDSVK", "CDR-H3": "GENAGTFDV", "log10 Kd, replicates": "-1.31 -0.75 -0.83 -1.49 -1.11 -0.86", "empty controls": "0/18"}
{"CDR-H1": "GFDLNEYGIS", "CDR-H2": "VIYADGMRQAYADSVK", "CDR-H3": "GENAGTFDI", "log10 Kd, replicates": "-0.86 -1.26 -0.72 -1.55 -1.28 -1.22", "empty controls": "0/18"}
{"CDR-H1": "GFDLNEYGIS", "CDR-H2": "VIYADGQRTAYADDVK", "CDR-H3": "GNQAGTFDI", "log10 Kd, replicates": "0.03 -0.56 -0.70 -0.63 -0.68 -0.35", "empty controls": "1/18 (2.77)"}
{"CDR-H1": "GFDLNEYGIS", "CDR-H2": "VIYADGVRTAYADNVK", "CDR-H3": "GNVAGTFDQ", "log10 Kd, replicates": "0.00 -0.55 -0.87 -1.20 -1.17 -0.75", "empty controls": "1/18 (2.92)"}
{"CDR-H1": "GFDLNEYGIS", "CDR-H2": "VIYADGMRTAYSDDVK", "CDR-H3": "GGNAGTFDI", "log10 Kd, replicates": "0.50 1.10 0.65 1.30 1.28 1.34", "empty controls": "0/18"}
{"CDR-H1": "GFDLDEYGIS", "CDR-H2": "VIYADGMRTAYADKVK", "CDR-H3": "GQNAGTFDV", "log10 Kd, replicates": "-0.99 0.00 -0.96 -1.06 -0.81 -1.23", "empty controls": "0/18"}
{"CDR-H1": "GFDLNEYGIS", "CDR-H2": "VIYADGKRTAYADNVK", "CDR-H3": "GETAGTFDV", "log10 Kd, replicates": "-0.50 -0.26 -0.25 -0.54 -0.40 -0.42", "empty controls": "0/18"}
{"CDR-H1": "GFDLNEYGIS", "CDR-H2": "VIYADGSRTAYADDVK", "CDR-H3": "GNEAGTFDV", "log10 Kd, replicates": "0.64 0.68 -0.78 0.92 0.52 0.47", "empty controls": "0/18"}
{"CDR-H1": "GFDLNEYGIS", "CDR-H2": "VIYADGMRTAYSDSVK", "CDR-H3": "GGNAGTFDV", "log10 Kd, replicates": "-0.54 -1.15 -0.67 -0.88 -0.79 -0.66", "empty controls": "0/18"}
{"CDR-H1": "GFDLEEYGIS", "CDR-H2": "VIYADGKRTFYADSVK", "CDR-H3": "GNVAGTFDV", "log10 Kd, replicates": "-0.41 -0.54 -0.58 -0.80 -0.52 -0.41", "empty controls": "0/18"}
{"CDR-H1": "GFDLDEYGIS", "CDR-H2": "VIYADGMRTAYSDSVK", "CDR-H3": "GEVAGTFDV", "log10 Kd, replicates": "-0.44 -0.42 -0.77 -0.66 -0.59 -0.61", "empty controls": "0/18"}
{"CDR-H1": "GFDLNEYGIS", "CDR-H2": "VIYADGMRTAYANDVK", "CDR-H3": "GETAGTFDL", "log10 Kd, replicates": "-0.93 -0.64 -0.99 -1.10 -1.47 -0.59", "empty controls": "0/18"}
{"CDR-H1": "GFDLDEYGIS", "CDR-H2": "VIYADGKRTYYADSVK", "CDR-H3": "GNVAGTFDT", "log10 Kd, replicates": "nd nd 1.49 nd 2.69 nd", "empty controls": "0/18"}
{"CDR-H1": "GFDLDEYGIS", "CDR-H2": "VIYADGRRTAYTDSVK", "CDR-H3": "GNVAGTFDI", "log10 Kd, replicates": "-0.37 -0.40 -0.28 -0.57 -0.57 -0.24", "empty controls": "0/18"}
{"CDR-H1": "GFDLNEYGIS", "CDR-H2": "VIYADGMRTAYADSVK", "CDR-H3": "GNVAGTFDA", "log10 Kd, replicates": "-0.72 -0.24 -0.51 -0.77 -1.00 -0.16", "empty controls": "0/18"}
{"CDR-H1": "GFDLNEYGIS", "CDR-H2": "VIYADGVRKSYADSVK", "CDR-H3": "GNNAGTFDV", "log10 Kd, replicates": "-0.55 -0.48 -0.62 0.03 -0.55 -0.23", "empty controls": "0/18"}

A selection of 4 entries from above:

| CDR-H1 | CDR-H2 | CDR-H3 | log10 Kd, replicates | empty controls |
|---|---|---|---|---|
| GFDLNEYGIS | VIYADGKRTAYTDSVK | GENAGTFDV | -1.31 -0.75 -0.83 -1.49 -1.11 -0.86 | 0/18 |
| GFDLNEYGIS | VIYADGVRKSYADSVK | GNNAGTFDV | -0.55 -0.48 -0.62 0.03 -0.55 -0.23 | 0/18 |
| GFDLDEYGIS | VIYADGRRTAYTDSVK | GNVAGTFDI | -0.37 -0.40 -0.28 -0.57 -0.57 -0.24 | 0/18 |
| GFDLNEYGIS | VIYADGQRTAYADSVK | GNEAGTFDL | 0.12 nd -0.48 0.29 -0.82 -0.34 | 0/18 |

The authors averaged sequences with at least three values out of six and counted those with two or fewer as poor binders.
A sequence measured in both rounds can read differently, since the two assays cover different ranges.
As a blank, each scFv also met three strains without target: over all heavy chain designs, 1% of these pairings were detected, typically at 2.08 and seldom below 0.84. For each scFv, signals with the empty controls are counted beside the result, with their mean in brackets.

The measurements come from Li et al. 2023 (doi:10.1038/s41467-023-39022-2) through the FLAb antibody collection.